Reference: article PMC10005967 (Molecular Psychiatry, 2022)

Protein sequences, listed by entry. Tags and fused reporters are not part of them. Residues count along the entry.
UniProt P10636, 561-697 limits assumed: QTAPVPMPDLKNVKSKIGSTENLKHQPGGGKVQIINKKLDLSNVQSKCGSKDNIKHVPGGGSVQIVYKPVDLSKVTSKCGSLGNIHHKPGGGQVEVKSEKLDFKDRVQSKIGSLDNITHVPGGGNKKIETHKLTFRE
UniProt P10636, 561-698 limits assumed: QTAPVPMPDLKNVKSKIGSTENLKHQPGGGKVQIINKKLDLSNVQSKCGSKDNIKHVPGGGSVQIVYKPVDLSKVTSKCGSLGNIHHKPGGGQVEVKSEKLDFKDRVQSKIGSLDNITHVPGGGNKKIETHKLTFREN
UniProt P10636, 623-708 limits assumed: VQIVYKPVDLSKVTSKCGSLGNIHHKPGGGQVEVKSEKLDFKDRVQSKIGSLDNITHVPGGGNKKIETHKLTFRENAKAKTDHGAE
UniProt P10636, 623-695 limits assumed: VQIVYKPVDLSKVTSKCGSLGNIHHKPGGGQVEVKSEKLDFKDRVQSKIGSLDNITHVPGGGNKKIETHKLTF

Legend:
[1] = target: tau, large frozen hemispherical brain sections from AD case A (Homo sapiens, UniProt P10636); experiment: Large frozen adjacent hemispherical brain section autoradiography, sporadic AD case A; conditions: tested as the radiolabelled form
[2] = target: tau, PSP FC brain homogenates (Homo sapiens, UniProt P10636); experiment: ^3H-PI2620 saturation binding assay in PSP frontal cortex brain homogenates; conditions: tested as the radiolabelled form
[3] = system: tau, homogenates from different regions of AD and control brains; experiment: ^3H-PI2620 brain regional binding studies in AD and control brain homogenates; conditions: tested as the radiolabelled form
[4] = target: tau, CBD FC brain homogenates (Homo sapiens, UniProt P10636); experiment: ^3H-PI2620 saturation binding assay in CBD frontal cortex brain homogenates; conditions: tested as the radiolabelled form
[5] = target: tau, small frozen FC sections from PSP cases (Homo sapiens, UniProt P10636); experiment: Small frozen FC section autoradiography, PSP cases; conditions: tested as the radiolabelled form; for NSP binding: 1 nM tracer + 1 μM unlabelled
[6] = system: tau, post-mortem PSP brain tissue; conditions: PSP frontal cortex (FC); tested as the radiolabelled form; cited from earlier work
[7] = target: tau, small frozen FC sections from CBD cases (Homo sapiens, UniProt P10636); experiment: Small frozen FC section autoradiography, CBD cases; conditions: tested as the radiolabelled form; for NSP binding: 1 nM tracer + 1 μM unlabelled
[8] = target: tau, AD FC brain homogenates (Homo sapiens, UniProt P10636); experiment: ^3H-PI2620 saturation binding assay in AD frontal cortex brain homogenates; conditions: tested as the radiolabelled form

## Fc1cc(-c2ccc3c(n2)[nH]c2ccncc23)ccn1 [PI2620]
[1]; all EC layers
  binding in the entorhinal cortex (EC), qualitative/visual: less intense and more diffuse
[1]; compared to ^3H-MK6240 and ^3H-RO948
  binding in the hippocampal (HIPP) CA1 region, qualitative: qualitatively less binding
[2]; FC homogenates
  Bmax in PSP, fold lower than in AD brain tissue: 6 fold
[2]; PSP FC homogenates, one binding site
  Bmax: 12 fmol/mg
[2]; PSP brains, binding assays in homogenates
  specific binding values: < 10 fmol/mg
[3]; AD brains
  regional binding distribution rank order: FC > TC > PC > hippocampus
[3]; FC (p < 0.001), PC and TC (p < 0.01), 0.6 nM
  specific binding in EOAD brains compared to LOAD brains: significantly higher
[3]; FC (p = 0.02) and TC (p < 0.01), 0.6 nM
  binding in LOAD brains compared to controls: significantly higher
[3]; FC and TC (p < 0.001), 0.6 nM
  specific binding in AD brains compared to control brains: significantly higher
[3]; all cortical regions (p < 0.001) and hippocampus (p < 0.01), 0.6 nM
  binding in EOAD brains compared to control brains: significantly higher
[3]; cerebellum, 0.6 nM
  binding in AD versus control brains: No significant differences
[3]; hippocampus (p = 0.02), 0.6 nM
  specific binding in AD brains compared to control brains: significantly higher
[4]; CBD FC homogenates, saturation
  Bmax2: 32 fmol/mg
[4]; CBD FC homogenates, second binding site from Scatchard plot
  Bmax1: 8.0 fmol/mg and 8 fmol/mg
[4]; CBD brains, binding assays in homogenates
  specific binding values: < 30 fmol/mg
[4]; FC homogenates
  Bmax in CBD brain tissue, fold lower than in AD brain tissue: 2 fold
  Bmax in CBD, fold higher than in PSP brain tissue: 2.6 fold
[4]; read-out: Kd1, CBD FC homogenates, second binding site from Scatchard plot
  Kd: 0.1 nM
[4]; read-out: Kd2, CBD FC homogenates, saturation
  Kd: 1.2 nM
[5]; PSP
  specific binding values in small sections, fold higher than in brain homogenates: 2.9 fold
[5]; case PSP 27
  NSP binding: 12.3 fmol/mg
[5]; case PSP 27, 1 nM tracer
  Specific binding: 34.9 fmol/mg
  Specific binding (%): 73% and 73.9%
  TOTAL binding: 47.2 fmol/mg
[5]; case PSP 28
  NSP binding: 26.0 fmol/mg
[5]; case PSP 28, 1 nM tracer
  Specific binding: 20.3 fmol/mg
  Specific binding (%): 44% and 43.9%
  TOTAL binding: 46.3 fmol/mg
[5]; two PSP cases, 1 nM tracer
  specific binding (%) over the PSP cases: 44-73%
[6]
  in vitro binding using autoradiography: no in vitro binding
[7]; CBD and PSP small frozen FC sections
  visual assessment of total versus NSP binding: significantly more intense for total than for NSP binding
[7]; CBD
  specific binding values in small sections, fold higher than in brain homogenates: ~ 3.1 fold
[7]; case CBD 20
  NSP binding: 19.9 fmol/mg
[7]; case CBD 20, 1 nM tracer
  Specific binding: 27.6 fmol/mg
  Specific binding (%): 58% and 58.1%
  TOTAL binding: 47.6 fmol/mg
[7]; case CBD 22
  NSP binding: 16.5 fmol/mg
[7]; case CBD 22, 1 nM tracer
  Specific binding: 54.9 fmol/mg
  Specific binding (%): 77% and 76.9%
  TOTAL binding: 71.3 fmol/mg
[7]; case CBD 23
  NSP binding: 25.3 fmol/mg
[7]; case CBD 23, 1 nM tracer
  Specific binding: 62.3 fmol/mg
  Specific binding (%): 71% and 71.1%
  TOTAL binding: 87.6 fmol/mg
[7]; three CBD cases, 1 nM tracer
  specific binding (%) over the CBD cases: 58-77%
[8]; AD FC homogenates, saturation
  Bmax2: 69 fmol/mg
[8]; AD FC homogenates, second binding site, Scatchard plot manually drawn
  Bmax1: 30 fmol/mg
[8]; AD brains, saturation and regional distribution binding assays in homogenates
  specific binding values: < 70 fmol/mg
[8]; FC homogenates
  specific binding in AD brain tissue, fold higher than in CBD: 2.5 fold
  specific binding in AD brain tissue, fold higher than in PSP: 6.5 fold
[8]; read-out: Kd1, AD FC homogenates, second binding site, Scatchard plot manually drawn
  Kd: 0.2 nM
[8]; read-out: Kd2, AD FC homogenates, saturation
  Kd: 0.7 nM

Where “and” joins values, the source holds several entries; their conditions need not be identical. Identical values can stand only once. Like-named read-outs stand apart in the source and are kept apart here.
